Protein sequences, listed by entry. Tags and fused reporters are not part of them. Residues count along the entry.
UniProt P23219, 24-599: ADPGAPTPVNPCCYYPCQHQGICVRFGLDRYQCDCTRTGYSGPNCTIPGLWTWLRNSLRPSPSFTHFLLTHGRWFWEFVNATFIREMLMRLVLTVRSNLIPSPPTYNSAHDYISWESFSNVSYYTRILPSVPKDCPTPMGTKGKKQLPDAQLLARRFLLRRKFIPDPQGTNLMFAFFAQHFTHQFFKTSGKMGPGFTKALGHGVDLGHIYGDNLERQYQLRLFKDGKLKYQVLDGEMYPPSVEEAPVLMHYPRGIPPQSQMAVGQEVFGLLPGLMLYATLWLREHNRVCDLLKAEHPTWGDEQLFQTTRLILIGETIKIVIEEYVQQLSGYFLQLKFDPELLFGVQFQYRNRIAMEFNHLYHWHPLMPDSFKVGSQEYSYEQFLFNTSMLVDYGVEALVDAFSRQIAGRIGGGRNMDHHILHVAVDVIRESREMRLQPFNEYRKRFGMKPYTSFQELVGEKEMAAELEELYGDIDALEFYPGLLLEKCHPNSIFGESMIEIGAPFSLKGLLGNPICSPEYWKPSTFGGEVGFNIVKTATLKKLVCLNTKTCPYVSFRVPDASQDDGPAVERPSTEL

According to patent US7446122B2, “Substituted indole derivatives” (Cephalon, Inc., priority 2003, dated 2008):

Molecular target: T1, COX-1 (Homo sapiens, UniProt P23219)
T1 construct: endogenous in cells; host or cells: human platelets
Assay: Cox-1 assay: PGE2 formation in human platelets
Format: cell-based
Conditions: compounds are screened at 10 μM
Method: Test compound and/or vehicle is incubated with human platelets (10^8/ml) containing the phospholipase inhibitor MLnFP (100 μM) for 15 minutes at 37° C. Arachidonic acid (100 μM) is then added for a further 15 minute incubation period. The reaction is stopped by addition of 1 N HCl and neutralized with 1N NaOH. PGE2 levels in the supernatant are determined using the Amersham EIA kit. […]

SMILES: CCc1cccc2c3c([nH]c12)C(CC)(CC(=O)O)OCC3 (stereo not shown) [Etodolac, reference compound]
- inhibition at 10 µM: -25%
